# Source: PubChem BioAssay AID1508602 (The Scripps Research Institute Molecular Screening Center, 2020)
# Protein sequences, listed by entry. Tags and fused reporters are not part of them. Lines headed by an entry give the natural chain unless they say otherwise; changes in a name come on top.
# UniProt Q8TDV0: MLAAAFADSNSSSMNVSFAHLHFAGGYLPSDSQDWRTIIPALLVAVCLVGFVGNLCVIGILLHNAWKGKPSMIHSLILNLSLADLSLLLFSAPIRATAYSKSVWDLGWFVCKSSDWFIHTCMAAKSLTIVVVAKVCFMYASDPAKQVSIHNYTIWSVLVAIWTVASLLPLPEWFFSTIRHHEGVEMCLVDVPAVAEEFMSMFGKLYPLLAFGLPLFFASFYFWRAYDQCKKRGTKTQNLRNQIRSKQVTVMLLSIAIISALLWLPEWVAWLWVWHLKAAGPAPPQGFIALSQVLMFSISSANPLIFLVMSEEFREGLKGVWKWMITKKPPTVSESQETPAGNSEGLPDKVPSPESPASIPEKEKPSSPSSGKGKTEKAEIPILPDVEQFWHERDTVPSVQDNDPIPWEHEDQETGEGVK
# The entries are a selection whose mix differs from that of the whole data set. Activity calls are given as the source filed them. Cut-off read from the data, not from the text of the source: active = activation above about 4.9%; inactive = the rest.
# Target: G-protein coupled receptor 151 (Homo sapiens) (UniProt Q8TDV0)
# Assay: activators of human GPR151, primary screen, cell-based, PathHunter beta-arrestin, luminescence (AID 1508602);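 note: 0% = median of compound wells and 100% = cells with positive control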
# Conditions: PathHunter beta-arrestin GPR151 cells, at 11.2 µM, stronger effect = higher value
row,Compound,activation
1,CN(C)P1(=O)Nc2ccccc2S1 (centres undefined),inactive: 2.45%
2,O=C(Nc1nnc(-c2cccc([N+](=O)[O-])c2)s1)c1ccc([N+](=O)[O-])cc1[N+](=O)[O-],inactive: -2.14%
3,Cc1cc(=O)[nH]c(N[N+](=O)[O-])n1,inactive: -1.03%
4,COc1ccc(C)cc1NC(=O)N(Cc1ccco1)C1CCN(CCc2ccccn2)CC1,inactive: 0.267%
5,CCOP(=S)(OCC)SCC(=O)NC(C)C(=O)NC (centres undefined),inactive: -0.0623%
6,CC(C)COP(=O)(Nc1cccc(F)c1)OCC(C)C,inactive: -0.751%
7,CC1CN(c2ccc([N+](=O)[O-])cc2[N+](=O)[O-])CCN1c1ccc([N+](=O)[O-])cc1[N+](=O)[O-] (centres undefined),inactive: -0.457%
8,CC(C)OP(=O)(OC(C)C)C(=O)c1ccccc1,inactive: 0.539%
9,c1ccc2nc(-c3nc4ccccc4[nH]3)ccc2c1,inactive: -8.85%
10,BrCC1CN=C(Nc2ccccc2Br)S1 (centres undefined),inactive: -0.562%
11,O=C(COC(=O)C(O)(c1ccccc1)c1ccccc1)NCC(F)(F)F,inactive: 1.32%
12,O=[N+]([O-])c1ccc(C(O)C(CO)Nc2ccc([N+](=O)[O-])cc2[N+](=O)[O-])cc1 (centres undefined),inactive: 0.693%
13,O=[N+]([O-])c1cc([N+](=O)[O-])c(Nc2ccccc2)c([N+](=O)[O-])n1,inactive: 0.178%
14,O=[N+]([O-])c1ccc2no[n+]([O-])c2c1,inactive: -0.413%
15,O=C(NNC(=O)c1ccncc1)NP1Oc2ccccc2O1,inactive: 0.825%
16,Nc1nonc1OCCOc1nonc1N,inactive: -1.44%
17,CCOP(=S)(OCC)SCC(=O)NC(C)C(=O)O (centres undefined),inactive: 3.68%
18,CCCOc1ccc(S(=O)(=O)N(CCCl)CCCl)cc1,inactive: 1.65%
19,CCN(CCCl)c1ccc(C=C(C#N)C#N)c(C)c1,inactive: -1.15%
20,COP1(=S)N=C2c3ccccc3CN2c2cc(N(C)C)ccc21 (centres undefined),inactive: -0.516%

row,Compound,activation
1,CC(C)NC(=O)NP(=O)(Oc1ccccc1)Oc1ccccc1,inactive: -0.273%
2,COC(=O)N(c1ccc(OC)cc1)P1(=S)OCC(C)O1 (centres undefined),inactive: -1.03%
3,CN(C)CCCN(C)Cc1cc2ccccc2o1,inactive: 1.76%
4,CCOP(=O)(OCC)C(=O)c1ccc(OC)cc1,inactive: -1.71%
5,CC(C)OP(=O)(OC(C)C)C(=O)c1ccc(F)cc1,inactive: -0.0099%
6,O=[N+]([O-])c1cc([N+](=O)[O-])c2[nH]ncc2c1,inactive: -0.256%
7,O=C(Cn1cnc([N+](=O)[O-])n1)NCCO[N+](=O)[O-],inactive: -0.276%
8,CC(C)OP(=O)(NC(C)(C)C)C(Cl)Cl (centres undefined),inactive: -0.27%
9,O=[N+]([O-])c1ccc(/C=C/C=N/Nc2ccc([N+](=O)[O-])cc2[N+](=O)[O-])cc1,inactive: 0.843%
10,O=C(O)Cc1ccc(N(CCCl)CCCl)cc1,inactive: -0.294%
11,O=C(c1cccnc1)N(Cc1ccco1)C1CCN(CCc2ccc(Cl)cc2)CC1,inactive: 0.791%
12,O=P1(Nc2nc(-c3ccccc3)cs2)C=C(c2ccccc2)OC(c2ccccc2)=C1,inactive: -0.821%
13,CC(C)COP(=O)(Nc1ccc(Br)cc1)OCC(C)C,inactive: 1.24%
14,CCCCOP(=S)(CC(=O)N(CC)CC)OCCCC,inactive: 0.28%
15,CC(C)OP(=O)(OC(C)C)C(=O)c1ccccc1Cl,inactive: -1.31%
16,Cc1sc2nc3n(c(=O)c2c1C)CC(CI)S3 (centres undefined),inactive: 2.84%
17,Cc1cc(SC(NC=O)C(Cl)(Cl)Cl)ncn1 (centres undefined),inactive: 0.437%
18,O=C(CF)NC(Sc1ccccc1)C(Cl)(Cl)Cl (centres undefined),inactive: -0.197%
19,CCN1C(=O)N(c2ccccc2)P(=S)(OC)c2cc3c(cc21)OCCO3 (centres undefined),inactive: 1.61%
20,CC(C)OP(=O)(Nc1nc2ccccc2[nH]1)OC(C)C,inactive: 0.127%

row,Compound,activation
1,O=C(Cc1ccc(F)cc1)N(Cc1ccco1)C1CCN(CCc2cccs2)CC1,inactive: 2.26%
2,O=[N+]([O-])c1cccc(Nc2ccc([N+](=O)[O-])cc2[N+](=O)[O-])c1,inactive: -0.177%
3,CC(C)(C)C(=O)CSc1nc2ccccc2[nH]1,inactive: -1.71%
4,O=[N+]([O-])c1ccc(-c2nnc(SCCCl)o2)cc1,inactive: -0.765%
5,CCN(CC)C(=O)NP(=O)(Oc1ccccc1)Oc1ccccc1,inactive: -1.45%
6,Cc1cc(NP(=O)(Oc2ccccc2)Oc2ccccc2)no1,inactive: 0.585%
7,Nc1c([N+](=O)[O-])cc([N+](=O)[O-])c(Nc2ccc(S(N)(=O)=O)cc2)c1[N+](=O)[O-],inactive: 0.171%
8,O=C(Cc1ccc(F)cc1)N(Cc1cccnc1)C1CCN(CCc2ccccn2)CC1,inactive: 1.2%
9,COc1ccc(CCN2CCC(N(Cc3cccnc3)C(=O)NC(C)C)CC2)cc1,inactive: 0.419%
10,O=C(COC(=O)c1ccc([N+](=O)[O-])cc1[N+](=O)[O-])c1ccc([N+](=O)[O-])cc1,inactive: 0.721%
11,COc1cc(NC(=O)COC(=O)C(O)(c2ccccc2)c2ccccc2)cc(OC)c1,inactive: 2.54%
12,Cc1cc(NP(=O)(/C=C(\Cl)c2ccccc2)/C=C(\Cl)c2ccccc2)n[nH]1,inactive: 2.08%
13,COc1ccc(NC(=O)c2cc([N+](=O)[O-])cc([N+](=O)[O-])c2)c([N+](=O)[O-])c1,inactive: -0.787%
14,O=C(Nc1ccncc1[N+](=O)[O-])c1ccc([N+](=O)[O-])cc1[N+](=O)[O-],inactive: 2.04%
15,O=C(c1ccco1)N(Cc1cccnc1)C1CCN(CCc2ccc(Cl)cc2)CC1,inactive: 2.42%
16,CCc1cccc(NC(=O)Oc2c([N+](=O)[O-])cc([N+](=O)[O-])cc2[N+](=O)[O-])c1,inactive: 1.91%
17,CCCCC(NC(=O)OC(C)(C)C)C(=O)O (centres undefined),inactive: -0.0614%
18,O=C(Nc1ccc(Br)cc1[N+](=O)[O-])c1cc([N+](=O)[O-])cc([N+](=O)[O-])c1,inactive: 0.299%
19,COC(=O)c1cc([N+](=O)[O-])c(Nc2ccc([N+](=O)[O-])cc2Br)c([N+](=O)[O-])c1,inactive: -0.556%
